# Results as given in PubChem BioAssay (NCI).
# The list shows a part of the results, in another mix than the full data. Active and inactive are the calls of the source. Rule as the data show it: active = growth inhibition above about 70%; inactive = the rest.
# Experiment: NCI Yeast Anticancer Drug Screen. Data for the bub3 strain (AID 167)
# Settings: S. cerevisiae bub3 mutant strain, at 50.0 µM, stronger effect = higher value
row,SMILES,growth inhibition
1,c1ccc(CN2CCC(Nc3ccccc3)CC2)cc1,inactive: 53.8%
2,CC(Cl)CN(CC(C)Cl)c1ccc2ccccc2c1 (stereo not drawn),inactive: -16.8%
3,Cc1cc(C)c2nc(CN(CCCl)CCCl)[nH]c2c1,inactive: 15.3%
4,Cc1ccc(NC2(C(N)=O)CCNCC2)cc1,inactive: -3.25%
5,Cc1ccc(N(CCBr)CCBr)cc1,inactive: -1.8%
6,COc1ccccc1N(CCCl)CCCl,inactive: 1.9%
7,O=C(O)CCOc1ccccc1N(CCCl)CCCl,inactive: 18.1%
8,O=C1CCNCC1,inactive: 4.15%
9,Nc1c(Cl)cc(CN(CCCl)CCCl)cc1Cl,inactive: -7.7%
10,CC(C)NP(=O)(F)NC(C)C,inactive: -14%
11,Nc1cc([As](Cl)Cl)ccc1O,inactive: 37.2%
12,O=C(O)CN(CCCl)CCCl,inactive: 2.65%
13,Fc1cccc(CBr)c1,inactive: 8.8%
14,ClCCSC(SCCCl)=C(SCCCl)SCCCl,inactive: -0.45%
15,Cc1cc(N(CCCl)CCCl)ccc1C=C(C#N)C#N,inactive: 18.1%
16,Cc1ccc(NC2(C#N)CCN(Cc3ccccc3)CC2)cc1,inactive: 3.2%
17,CCOc1ccc(N(CCCl)CCCl)cc1,inactive: 1.45%
18,COc1cccc(N(CCCl)CCCl)c1,inactive: 18.3%
19,O=P(Cl)(Cl)N(CCF)CCCl,inactive: -7.15%

row,SMILES,growth inhibition
1,O=C1NC(=NC2CCCCC2)C2(CCN(CCc3ccccc3)CC2)N1c1ccccc1,inactive: 14.4%
2,COC(=O)c1ccc(C)c(N(CCCl)CCCl)c1,inactive: 2.45%
3,CCC1C(OC(=O)CC(O)(c2ccccc2)c2ccccc2)C2CCN1CC2 (stereo not drawn),inactive: 4.05%
4,CN(CCCl)CC(Cl)c1cccc(C(F)(F)F)c1 (stereo not drawn),inactive: -3.05%
5,O=c1[nH]c2ccccc2n1C1CCN(Cc2ccccc2)CC1,inactive: -4.35%
6,Nc1cc([As](I)I)ccc1O,inactive: 66.1%
7,O=NN(CCSCCCl)C(=O)NC1CCCCC1,inactive: -0.2%
8,CCC(=O)N(c1ccccc1)C1CCNCC1,inactive: -7.2%
9,COc1ccc([N+](=O)[O-])cc1CN(CCBr)CCBr,inactive: 1.2%
10,O=C1CCN(CCc2ccccc2)CC1,inactive: 3.9%
11,O=C(O)C1(Nc2ccccc2)CCN(Cc2ccccc2)CC1,inactive: -36.2%
12,CCCCCCCCC(=O)OCC(COP(=O)(Oc1ccccc1)N(CCCl)CCCl)OC(=O)CCCCCCCC (stereo not drawn),inactive: -4.05%
13,NS(=O)(=O)c1ccc(N(CCCl)CCCl)cc1,inactive: 10.7%
14,Cn1c(S(C)=O)cnc1COC(=O)N(CCCl)CCCl (stereo not drawn),inactive: 11.1%
15,CC1(C)OCC(COP(N)(=O)N(CCCl)CCCl)O1 (stereo not drawn),active: 85.7%
16,O=C(OC1CN2CCC1CC2)C1(c2ccccc2)COc2ccccc21 (stereo not drawn),inactive: 14.4%
17,CCCOP(O)OCCC,inactive: 5.55%
18,Cc1ccc(N(CCCl)CCCl)cc1,inactive: -10.6%
19,ClCCN(CCCl)c1ccccc1,inactive: 6.1%
